The test system of the experiment is Chilo suppressalis. In words: Potentiation of fenitrothion-induced insecticidal activity against OP-resistant Chilo suppressalis Hata-f (rice stem borer) assessed as synergistic ratio at 1:10 fenitrothion to compound ratio relative to fenitrothion alone.

These results are taken from ChEMBL document CHEMBL3044873, “Aryl N, N-Dimethylcarbamates, Synergists for Organophosphorus Insecticides against Organophos-phorusresistant Rice Stem Borers” (J Pestic Sci, 1990).

With `CN(C)C(=O)Oc1cccnc1`, the fold change (FC) stood at 9.1.
